The values that follow come from paper PMC2737085.

The assay has as its target RPA heterotrimer with ΔN-RPA1 (RPA1 lacking amino acids 1-168) (UniProt P27694). Nature of the assay: co-IP.

As for “MRE11/RAD50/NBS1 (MRN) complex, P49959 1-708; Q92878 1-1312; O60934 1-754”, the percent decrease in binding against RPA was 97%.
